This note sets out measurements from patent publication US11279678B2, “5-fluorouracil derivatives, preparation methods and uses thereof” (SHANGHAI ECUST BIOMEDICINE CO., LTD., priority 2017, dated 2022).

For data set [1] the following is noted: both, Kunming, mouse, in vivo, po.
The nature of data set [2]: in vivo. Conditions: both, Kunming, mouse, po.

Like-named read-outs stand apart in the source and are kept apart here.

Turning to `O=c1[nH]cc(F)c(=O)[nH]1` [Compound 5-FU, 5-fluorouracil], the “LD50” value in data set [1] and in data set [2] was 230 mg/kg in each case.

Usually LD50 stands for the dose expected to kill half of the subjects tested.
